Measured values as given in ChEMBL document CHEMBL3817780, “Structure-Based Design of 1,4-Dibenzoylpiperazines as β-Catenin/B-Cell Lymphoma 9 Protein-Protein Interaction Inhibitors” (ACS Med Chem Lett, 2016).

Amino acid sequences for entries named in this document (tags omitted).
UniProt P35222, whole entry: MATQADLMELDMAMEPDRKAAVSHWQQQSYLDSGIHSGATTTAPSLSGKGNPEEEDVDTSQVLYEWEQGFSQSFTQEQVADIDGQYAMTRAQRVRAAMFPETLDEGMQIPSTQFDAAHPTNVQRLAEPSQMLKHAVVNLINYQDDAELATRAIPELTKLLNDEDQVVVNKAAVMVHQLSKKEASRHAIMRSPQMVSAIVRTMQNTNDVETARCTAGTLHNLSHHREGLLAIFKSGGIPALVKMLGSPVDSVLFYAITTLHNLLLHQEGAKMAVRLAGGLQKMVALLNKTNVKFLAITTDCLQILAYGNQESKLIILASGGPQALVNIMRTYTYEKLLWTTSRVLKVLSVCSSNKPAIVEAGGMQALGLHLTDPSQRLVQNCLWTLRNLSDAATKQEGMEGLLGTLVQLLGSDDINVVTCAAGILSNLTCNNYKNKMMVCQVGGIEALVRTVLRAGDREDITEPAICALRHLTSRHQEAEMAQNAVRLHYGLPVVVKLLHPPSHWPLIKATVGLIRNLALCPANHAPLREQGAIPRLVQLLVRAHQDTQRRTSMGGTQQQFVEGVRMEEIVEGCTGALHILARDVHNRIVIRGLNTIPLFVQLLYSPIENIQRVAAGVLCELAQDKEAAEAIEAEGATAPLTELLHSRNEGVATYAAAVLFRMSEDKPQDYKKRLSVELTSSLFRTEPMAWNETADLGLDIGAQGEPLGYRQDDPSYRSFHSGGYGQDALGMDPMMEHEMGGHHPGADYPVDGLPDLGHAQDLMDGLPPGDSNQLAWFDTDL

Assays:
[1] = biological target: beta-catenin-B-cell lymphoma 9 protein complex (Homo sapiens, UniProt P35222); assay: Competitive inhibition of wild type beta-catenin (unknown origin) expressed in Escherichia coli BL21 DE3 interaction with N-terminally biotinylated human BCL9 (350 to 375 residues) by alpha screen assay
Summary of the method: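 Competitive AlphaScreen binding assays run in parallel against wild-type β-catenin, one with the BCL9 partner and one with the E-cadherin partner; data given as mean ± standard deviation, n = 3.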

[2] = species: Homo sapiens; assay: Selectivity ratio of Ki for wild type beta-catenin (unknown origin)/ N-terminally biotinylated human BCL9 (350 to 375 residues) interaction to Ki for wild type beta-catenin (unknown origin)/N-terminally biotinylated human E-cadherin (824 to 887 residues) interaction

| Compound | Ki [1] [µM] | Ratio Ki [2] |
| --- | --- | --- |
| CC1CCC(c2cc(C(=O)N3CCN(C(=O)c4cc(F)cc(N5CCNCC5)c4)CC3)ccc2O[C@H]2CCNC2)CC1 (some centres not stated) | 37 | – |
| Cl.Cl.O=C(c1cc(F)cc(N2CCNCC2)c1)N1CCN(C(=O)c2ccc(O[C@H]3CCNC3)c(C3CCCCC3)c2)CC1 | – | 98 |
